Test results reported in patent US4912133A, “BU-3862T antitumor antibiotic” (priority 1988, dated 1990).

Tests used:
P388 leukemia = details: Q4D × 3
[1] = Table 6, 0.25 mg/kg/day ip, Q4D × 3
[2] = Table 6, 0.5 mg/kg/day ip, Q4D × 3
[3] = Table 6, 1.0 mg/kg/day ip, Q4D × 3
[4] = Table 6, 2.0 mg/kg/day ip, Q4D × 3
[5] = Table 6, 4.0 mg/kg/day ip, Q4D × 3
[6] = Table 6, 8.0 mg/kg/day ip, Q4D × 3
[7] = Table 7, 1.0 mg/kg/day ip, Q4D × 3
[8] = Table 7, 2.0 mg/kg/day ip, Q4D × 3
[9] = Table 7, 4.0 mg/kg/day ip, Q4D × 3
[10] = Table 7, 8.0 mg/kg/day ip, Q4D × 3

C=C(C)CC(NC(=O)[C@H](CO)NC(=O)CCCCC(C)C)C(=O)C1(CO)CO1 (stereo partly shown) [BU-3862T]
MST (median survival time) (B16 melanoma; Table 6, 0.13 mg/kg/day ip, QD × 9): 18.5 days
MST (median survival time) (B16 melanoma; [1]): 14.0 days
T/C (B16 melanoma; [1]): 117%
MST (median survival time) (B16 melanoma; Table 6, 0.25 mg/kg/day ip, QD × 9): 20.0 days
MST (median survival time) (B16 melanoma; [2]): 15.5 days
T/C (B16 melanoma; [2]): 129%
MST (median survival time) (B16 melanoma; Table 6, 0.5 mg/kg/day ip, QD × 9): 20.0 days
MST (median survival time) (B16 melanoma; Table 6, 0.63 mg/kg/day (so in the source) ip, QD × 9): 18.0 days
MST (median survival time) (B16 melanoma; [3]): 17.0 days
T/C (B16 melanoma; [3]): 142%
MST (median survival time) (B16 melanoma; Table 6, 1.0 mg/kg/day ip, QD × 9): 14.5 days
MST (median survival time) (B16 melanoma; [4]): 18.0 days
T/C (B16 melanoma; [4]): 150%
MST (median survival time) (B16 melanoma; Table 6, 2.0 mg/kg/day ip, QD × 9): Tox.
MST (median survival time) (B16 melanoma; [5]): 19.0 days
T/C (B16 melanoma; [5]): 158%
MST (median survival time) (B16 melanoma; [6]): 20.0 days
T/C (B16 melanoma; [6]): 167%
MST (median survival time) (L1210 leukemia; 0.25 mg/kg/day ip, Q3D × 3): 9.5 days
MST (median survival time) (L1210 leukemia; 0.5 mg/kg/day ip, Q3D × 3): 9.5 days
MST (median survival time) (L1210 leukemia; 1.0 mg/kg/day ip, Q3D × 3): 10.0 days
MST (median survival time) (L1210 leukemia; 4.0 mg/kg/day ip, Q3D × 3): Tox.
MST (median survival time) (P388 leukemia; 0.5 mg/kg/day ip): 13.0 days
T/C (P388 leukemia; 0.5 mg/kg/day ip): 124%
MST (median survival time) (P388 leukemia; 1.0 mg/kg/day ip): 11.5 days
T/C (P388 leukemia; 1.0 mg/kg/day ip): 110%
MST (median survival time) (P388 leukemia; 4.0 mg/kg/day ip): 11.0 days
T/C (P388 leukemia; 4.0 mg/kg/day ip): 105%

CC(C)CCCCC(=O)N[C@@H](CO)C(=O)NC(CC(C)C)C(=O)C1(CO)CO1 (stereo partly shown) [Dihydro-BU-3862T]
MST (median survival time) (B16 melanoma; [7]): 19.5 days
T/C (B16 melanoma; [7]): 115%
MST (median survival time) (B16 melanoma; [8]): 21.0 days
T/C (B16 melanoma; [8]): 124%
MST (median survival time) (B16 melanoma; [9]): 20.0 days
T/C (B16 melanoma; [9]): 118%
MST (median survival time) (B16 melanoma; [10]): 22.5 days
T/C (B16 melanoma; [10]): 132%

C=C(C)CC(NC(=O)[C@H](COC(C)=O)NC(=O)CCCCC(C)C)C(=O)C1(COC(C)=O)CO1 (stereo partly shown) [Diacetyl-BU-3862T]
MST (median survival time) (B16 melanoma; [7]): 20.0 days
T/C (B16 melanoma; [7]): 118%
MST (median survival time) (B16 melanoma; [8]): 20.5 days
T/C (B16 melanoma; [8]): 121%
MST (median survival time) (B16 melanoma; [9]): 23.0 days
T/C (B16 melanoma; [9]): 135%
MST (median survival time) (B16 melanoma; [10]): 24.0 days
T/C (B16 melanoma; [10]): 141%

CO[C@@]12[C@H](COC(N)=O)C3=C(C(=O)C(C)=C(N)C3=O)N1C[C@@H]1N[C@@H]12 [Mitomycin C, reference compound]
MST (median survival time) (B16 melanoma; [2]): 15.0 days
MST (median survival time) (B16 melanoma; [3]): 18.5 days
T/C (B16 melanoma; [3]): 154%
MST (median survival time) (B16 melanoma; [4]): 29.0 days
T/C (B16 melanoma; [4]): 242%
MST (median survival time) (B16 melanoma; Table 7, 0.25 mg/kg/day ip, Q4D × 3): 20.0 days
MST (median survival time) (B16 melanoma; [7]): 23.0 days
MST (median survival time) (B16 melanoma; [8]): ≥ 33.0 days
T/C (B16 melanoma; [8]): ≥ 194%
MST (median survival time) (L1210 leukemia; 0.25 mg/kg/day ip, QD × 3): 10.0 days
MST (median survival time) (P388 leukemia; 1.0 mg/kg/day ip): 15.0 days

Like-named read-outs stand apart in the source and are kept apart here.
